Among the data in PMC6450568 (Bioorganic & medicinal chemistry letters, 2019) are IC50 values, retold here.

pIC50: −log10 of the molar value.

In this assay the target is T1, native MDH (malate dehydrogenase) reporter enzyme (Sus scrofa, UniProt P00346).
T1 sequence (P00346 25-338): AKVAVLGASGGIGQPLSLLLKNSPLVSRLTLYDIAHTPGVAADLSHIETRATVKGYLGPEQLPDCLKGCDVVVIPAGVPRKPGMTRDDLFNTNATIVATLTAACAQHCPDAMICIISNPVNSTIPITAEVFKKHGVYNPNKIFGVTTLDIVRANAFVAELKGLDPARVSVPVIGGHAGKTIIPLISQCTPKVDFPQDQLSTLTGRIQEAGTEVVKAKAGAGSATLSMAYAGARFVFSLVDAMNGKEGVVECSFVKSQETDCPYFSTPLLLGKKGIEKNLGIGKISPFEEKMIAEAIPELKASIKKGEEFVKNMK
The experiment in a line: Native MDH enzymatic reporter counter-screen. It is filed as biochemical. Background: A counterscreen serves to expose hits that act by an unwanted route or on another target.

As usually defined, the pIC50 is the negative decadic logarithm of the IC50, by convention in mol/L. High values mean a low IC50, low ones a high IC50.

`CC1=C(/C=C/C(C)=C/C=C/C(C)=C/C(=O)O)C(C)(C)CCC1` [Compound 25, Retinoic acid] gave a pIC50 of less than 4.20.
`CC1=NCCc2c1[nH]c1cc(O)ccc21` [Compound 54, Harmalol] showed a pIC50 of less than 4.20.
